Results from PubChem BioAssay AID624101 (Broad Institute, 2012).
The entries are a selection whose mix differs from that of the whole data set. Some salts or complexes appear as unconnected parts, following the source record. Active and inactive are the calls of the source. Cut-off read from the data, not from the text of the source: active = inhibition above about 34%; inconclusive = no clear call, values can overlap the other calls; inactive = below about 11%.

Protein sequences, listed by entry. Tags and fused reporters are not part of them.
UniProt O75874, whole entry R132H: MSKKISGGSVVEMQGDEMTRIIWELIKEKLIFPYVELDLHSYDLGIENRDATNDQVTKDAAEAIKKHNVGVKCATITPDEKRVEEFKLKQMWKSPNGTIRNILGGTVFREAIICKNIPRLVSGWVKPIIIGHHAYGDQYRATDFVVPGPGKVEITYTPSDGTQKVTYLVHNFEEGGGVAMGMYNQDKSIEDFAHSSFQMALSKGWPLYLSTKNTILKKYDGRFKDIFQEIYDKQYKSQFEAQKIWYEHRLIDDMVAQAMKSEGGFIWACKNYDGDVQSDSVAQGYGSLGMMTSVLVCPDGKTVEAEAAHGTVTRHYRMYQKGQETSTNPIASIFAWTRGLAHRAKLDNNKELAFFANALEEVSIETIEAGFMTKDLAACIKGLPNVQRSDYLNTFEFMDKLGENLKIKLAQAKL

What follows are molecules tested against Isocitrate dehydrogenase [NADP] cytoplasmic (Homo sapiens) (UniProt O75874) (assay: PubChem AID 624101). Details: IDH1 R132H reductase, diaphorase/resazurin fluorescence, 60 min; at 10 µM; hits give high values.
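Note: 0% = DMSO and 100% = no enzyme.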

Compound | inhibition
C/C1=C2N=C(/C=C3N=C(/C(C)=C4\[N-][C@@](C)([C@@H]5N=C1[C@](C)(CCC(=O)NC[C@@H](C)OP(=O)(O)O[C@H]1[C@@H](O)[C@@H](n6cnc7cc(C)c(C)cc76)O[C@@H]1CO)[C@H]5CC(N)=O)[C@@](C)(CC(N)=O)[C@@H]4CCC(N)=O)[C@@](C)(CC(N)=O)[C@@H]\3CCC(N)=O)C(C)(C)[C@@H]/2CCC(N)=O.[C-]#N.[Co+3] | inactive: 0.676%
C/C1=C2N=C(/C=C3N=C(/C(C)=C4\[N-][C@@](C)([C@@H]5N=C1[C@](C)(CCC(=O)NCC(C)OP(=O)(O)O[C@@H]1[C@H](O)[C@H](n6cnc7cc(C)c(C)cc76)O[C@H]1CO)[C@H]5CC(N)=O)[C@@](C)(CC(N)=O)[C@@H]4CCC(N)=O)[C@@](C)(CC(N)=O)[C@@H]\3CCC(N)=O)C(C)(C)[C@@H]/2CCC(N)=O.[C-]#N.[Co+3] (some centres not stated) | inactive: 0.232%
